ChEMBL document CHEMBL4321874, “Discovery of a Novel, Highly Potent, and Selective Thieno[3,2-d]pyrimidinone-Based Cdc7 Inhibitor with a Quinuclidine Moiety (TAK-931) as an Orally Active Investigational Antitumor Agent” (J Med Chem, 2020)

Protein sequences, listed by entry. Tags and fused reporters are not part of them. Lines headed by an entry give the natural chain unless they say otherwise; changes in a name come on top.
UniProt O00311: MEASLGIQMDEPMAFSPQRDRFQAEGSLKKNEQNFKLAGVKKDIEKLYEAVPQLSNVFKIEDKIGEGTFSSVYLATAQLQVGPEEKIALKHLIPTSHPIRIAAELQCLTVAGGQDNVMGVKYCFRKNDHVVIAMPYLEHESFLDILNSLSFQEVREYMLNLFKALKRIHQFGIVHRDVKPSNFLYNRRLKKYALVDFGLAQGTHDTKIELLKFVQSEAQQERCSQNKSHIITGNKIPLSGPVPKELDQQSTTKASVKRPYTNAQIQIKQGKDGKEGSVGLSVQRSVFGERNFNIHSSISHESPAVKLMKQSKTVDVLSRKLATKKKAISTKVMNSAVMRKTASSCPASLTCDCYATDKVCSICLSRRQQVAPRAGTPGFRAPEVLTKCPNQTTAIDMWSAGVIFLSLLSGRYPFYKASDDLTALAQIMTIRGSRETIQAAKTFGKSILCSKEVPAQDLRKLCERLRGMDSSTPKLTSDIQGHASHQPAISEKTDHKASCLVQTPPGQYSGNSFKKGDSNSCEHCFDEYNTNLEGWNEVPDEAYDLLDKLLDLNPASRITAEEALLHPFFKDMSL

Assays:
[1] = biological target: T1, Cell division cycle 7-related protein kinase (Homo sapiens, UniProt O00311); assay: Inhibition of ATP-specific reporter probe binding to CDC7 (unknown origin) assessed as residence time incubated for 60 mins by proteros reporter displacement assay
Homo sapiens = organism: Homo sapiens; assay: Selectivity ratio of IC50 for recombinant full-length human GST-tagged DYRK1A expressed in baculovirus expression system to IC50 for N-terminal GST-fused full-length human CDC7 (1 to 574 end residues)/DBF4 (1 to 674 residues) expressed in baculovirus expression system
[2] = biological target: T1, Cell division cycle 7-related protein kinase; assay: Binding affinity to CDC7 (unknown origin) assessed as residence time

SMILES: Cc1n[nH]cc1-c1cc2nc(CN3CCCC3)[nH]c(=O)c2s1
- TIME [1]: 0.567 h

SMILES: Cc1n[nH]cc1-c1cc2nc([C@@H]3CCCCN3)[nH]c(=O)c2s1
- TIME [1]: 0.433 h
- Ratio IC50 (Homo sapiens): 134

SMILES: Cc1n[nH]cc1-c1cc2nc([C@@H]3CC4CCN3CC4)[nH]c(=O)c2s1 [SIMUROSERTIB]
- TIME [2]: 0.433 h
